Consider one compound from paper PMC3460729, “Innate immune properties of selected human neuropeptides against Moraxella catarrhalis and nontypeable Haemophilus influenzae” (BMC Immunology, 2012).

In this assay the test system is human PMNs stimulated with H. influenzae ATCC 49247. Kind of assay: H. influenzae-stimulated ROS generation by PMNs, luminol-dependent chemiluminescence. It counts as cell-based. As to conditions: 10^−8 M NP, nonopsonized NTHi; 4 donors. The method, then: Polymorphonuclear leukocytes (PMNs) from healthy young adult volunteers were isolated from venous blood samples anticoagulated with Lithium-heparin (7.5 ml) by ficoll (Aqua-Med, Poland) density gradient centrifugation (2000 rpm/30 min), followed by hypotonic lysis of erythrocytes with a lysing buffer (0.83% NH4Cl, 0.1% KHCO3, EDTA, pH 7.4). After two washes (1400 rpm/10 min) in PBS, PMNs were resuspended to the final concentration of […] cells/ml in phagocytic buffer: HBSS with Ca^++ and Mg^++ supplemented with 1% HiFBS. The purity of granulocyte suspensions was checked using 15 μg/ml of acridine orange. […] Isolated PMNs were kept for 30 min at 37°C and 5% CO2 until used.
Reactive oxygen species (ROS) formation by PMNs was measured using luminol-dependent chemiluminescence assay (CL) in white flat-bottom 96-well microplates (NUNC, Denmark). The reaction mixture of total volume 200 μl in each well contained: 100 μl of PMN suspension in HBSS–Ca^++Mg^++ (10^5 cells/well), 40 μl of luminol (50 μM/well), 40 μl of fMLP (0.2 μM/well), 20 μl of particular NP (in the range 10^−12–10^−8 M/well). […] The maximal value of CL response curve was expressed as peak height (PHCL) for fMLP stimulant. In other cases the area under chemiluminescence curve (AUCCL) was calculated. […] Results were expressed as mean ± SD.

In the case of `CSCC[C@H](NC(=O)[C@H](CC(C)C)NC(=O)CNC(=O)[C@H](Cc1ccccc1)NC(=O)[C@H](Cc1ccccc1)NC(=O)[C@H](CCC(N)=O)NC(=O)[C@H](CCC(N)=O)NC(=O)[C@@H]1CCCN1C(=O)[C@H](CCCCN)NC(=O)[C@@H]1CCCN1C(=O)[C@@H](N)CCCNC(=N)N)C(N)=O` [SP, substance P], the “mean relative CL increase” value is given as 8.2 ± 5.4%.
